Earlier results as cited in patent US20110312513A1, “BIOMARKERS FOR PREDICTING SUSTAINED RESPONSE TO HCV TREATMENT” (ROCHE MOLECULAR SYSTEMS, INC., priority 2009, published 2011).

Settings: human, in vivo; cited from earlier work

In the case of `NC(=O)c1ncn([C@@H]2O[C@H](CO)[C@@H](O)[C@H]2O)n1` [ribavirin, 1-((2R,3R,4S,5R)-3,4-Dihydroxy-5-hydroxymethyl-tetrahydro-furan-2-yl)-1H-[1,2,4]triazole-3-carboxylic acid amide], the toxicity is given as “significant toxicity and is known to induce anemia”.
